Test results from paper PMC6683251, “Flavanol Bioavailability in Two Cocoa Products with Different Phenolic Content. A Comparative Study in Humans” (Nutrients, 2019).

Experiment: Urinary excretion of flavanol metabolites (0-24 h) after a single serving of soluble cocoa product (HPLC-ESI-QToF-MS)
Assay type: in vivo, human
Settings: mean ± SD, n = 13; for Excreted in urine, Basal: basal urine (−2–0 h, before intake); for Excreted in urine, Total: 24 h urine
Method: They were non-smoker, non-vegetarian, non-pregnant women, who were not taking any medication or nutritional supplements, and were not suffering from any chronic pathology or gastrointestinal disorder. The sample size was estimated attending to similar previous bioavailability studies. The volunteers gave their informed consent prior to participation.
The present randomized, single-blind study was carried out at the Human Nutrition Unit (HNU) of the Institute of Food Science, Technology and Nutrition (ICTAN). Volunteers attended the HNU on two days, separated by two weeks. Three days previous to each visit, participants were instructed not to consume cocoa products (chocolate, soluble cocoa, etc.), juices, tea, wine, grape must, oranges, tangerines, apples, grapes, strawberries or other berries, beets, onions, soybeans and soy derivatives.
On each intervention day, volunteers arrived at the HNU after an overnight fast. […] The soluble cocoa products, either 15 g of CC or 25 g CC-PP, were dissolved in 200 mL of semi-skimmed milk following manufacturer’s preparation instructions. Plasma was separated by centrifugation (10 min, 3000 rpm, 4 °C) and stored at −80 °C until further analysis. […] A polyphenol-free breakfast, lunch and afternoon snack were provided 2 h, 4 h, and 8 h after consumption of cocoa products, and water and isotonic beverages were available ad libitum.
Urine samples were diluted with an equivalent volume of Milli-Q water (50%) and centrifuged at 14000 rpm (10 min, 4 °C). Supernatants were filtered (0.45 μm pore-size cellulose-acetate membrane filters) and a 5 µL aliquot was directly injected into the LC-ESI-QToF-MS equipment.
The test samples, either 30 μL of the plasma extract or 5 μL of diluted urine, were injected and separated using a mobile phase consisting of Milli-Q water (phase A) and acetonitrile (phase B), both containing 0.1% formic acid, at a flow rate of 0.3 mL/min. The mobile phase was initially programmed with 90% of solvent A and 10% of B. The elution program increased to 30% of solvent B in 10 min. Then, the initial conditions (10% solvent B) were recovered in 5 min and maintained for 5 min.
Due to the lack of standards for certain phase II metabolites, they were tentatively quantified using the calibration curves of their corresponding phenolic precursors. […] The rest of microbial metabolites identified, derivatives of hydroxyphenylpropionic, hydroxyphenylacetic, hydroxybenzoic and hippuric acids, were quantified using their respective commercially available standards. Urine concentration of the excreted metabolites was normalized by the volume excreted in each studied interval. […] Calibration curves were freshly prepared in a pool of both plasma and urine due to matrix effects.
Statistical analyses were carried out using the program SPSS (version 23.0, SPSS, Inc., IBM Company, New York, NY, USA). Significant differences between metabolites excreted in urine after consumption of CC and CC-PP cocoa products were evaluated based on non-parametric Wilcoxon test (p < 0.05).

[1] = after CC-PP (68.25 mg flavanols)

With “5-Phenyl-γ-valerolactone-methoxy-sulfate [PVL-methoxy-sulfate]” the “Excreted in urine, Basal” value (CC intervention) was “<L.Q”, the “Excreted in urine, Total” value (after CC (19.80 mg flavanols)) was 0.085 ± 0.031 µmol and the “Excreted in urine, 4–8 h” value (after CC (19.80 mg flavanols)) was 0.085 ± 0.031 µmol. The “Excreted in urine, 8–12 h” value (after CC (19.80 mg flavanols)) was “<L.Q”, the “Excreted in urine, 12–24 h” value (after CC (19.80 mg flavanols)) was “<L.Q” and the “Excreted in urine, Total” value [1] was 0.177 ± 0.047 µmol. The “Excreted in urine, 0–4 h” value [1] was “<L.Q”, the “Excreted in urine, 4–8 h” value [1] was 0.177 ± 0.036 µmol and the “Excreted in urine, 8–12 h” value [1] was “<L.Q”. For the same compound, the “Excreted in urine, 12–24 h” value [1] was “<L.Q”.
With “5-Phenyl-γ-valerolactone-methoxy-glucuronide [PVL-methoxy-glucuronide]” the “Excreted in urine, Basal” value (CC intervention) was “<L.Q”, the “Excreted in urine, Basal” value (CC-PP intervention) was “<L.Q” and the “Excreted in urine, Total” value (after CC (19.80 mg flavanols)) was 0.111 ± 0.039 µmol. For the same compound, the “Excreted in urine, 0–4 h” value (after CC (19.80 mg flavanols)) was “<L.Q”, the “Excreted in urine, 4–8 h” value (after CC (19.80 mg flavanols)) was 0.111 ± 0.039 µmol and the “Excreted in urine, 8–12 h” value (after CC (19.80 mg flavanols)) was “<L.Q”. The “Excreted in urine, 12–24 h” value (after CC (19.80 mg flavanols)) was “<L.Q”, the “Excreted in urine, Total” value [1] was 0.555 ± 0.134 µmol and the “Excreted in urine, 0–4 h” value [1] was “<L.Q”. For the same compound, the “Excreted in urine, 4–8 h” value [1] was 0.340 ± 0.074 µmol, the “Excreted in urine, 8–12 h” value [1] was 0.084 ± 0.014 µmol and the “Excreted in urine, 12–24 h” value [1] was 0.131 ± 0.046 µmol.
For `O=C1CCC(Cc2ccc(O[C@@H]3O[C@H](C(=O)O)[C@@H](O)[C@H](O)[C@H]3O)c(O)c2)O1` (stereo partly drawn) [HPVL-4′-glucuronide, 5-(3′-Hydroxyphenyl)-γ-valerolactone-4′-glucuronide], the “Excreted in urine, Total” value (after CC (19.80 mg flavanols)) was 0.111 ± 0.049 µmol and the “Excreted in urine, 4–8 h” value (after CC (19.80 mg flavanols)) was 0.111 ± 0.049 µmol.
